Measured values taken from PubChem BioAssay AID492953 (The Scripps Research Institute Molecular Screening Center, 2010).
The entries are a selection whose mix differs from that of the whole data set. The source made the active and inactive calls.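 The calls were made as follows: active = inhibition above the mean of all tested compounds plus 3 SD (cut at about 24% in these data); inactive = the rest.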

By UniProt entry, the sequences of proteins in these tests, tags left out.
UniProt P68402, whole entry: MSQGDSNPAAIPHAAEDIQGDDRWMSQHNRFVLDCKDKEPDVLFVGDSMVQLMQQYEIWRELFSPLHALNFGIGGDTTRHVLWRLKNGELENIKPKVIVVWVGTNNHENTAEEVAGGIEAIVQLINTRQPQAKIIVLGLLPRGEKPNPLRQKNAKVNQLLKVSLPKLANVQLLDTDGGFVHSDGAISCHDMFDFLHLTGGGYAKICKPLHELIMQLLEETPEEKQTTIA

molecular target: Platelet-activating factor acetylhydrolase IB subunit alpha2 (Homo sapiens) (UniProt P68402); assay: inhibition of PAF acetylhydrolase 1b subunit 2 – biochemical, fluorescence polarization, human, primary screen (AID 492953); conditions: recombinant PAFAH1B2, FP-rhodamine activity probe, at 3.39 µM, active compounds read high;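 also: 0% = enzyme with DMSO and 100% = wells lacking PAFAH1B2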

Row | Structure (SMILES) | inhibition
1 | Cc1ccc(NC2(C#N)CCN(Cc3ccccc3)CC2)cc1 | inactive: 0.38%
2 | Fc1ccccc1NC1CCN(Cc2ccccc2)CC1 | inactive: 0.55%
3 | Cc1ccc(C(=O)NCC2(N3CCCCC3)CCCCC2)o1 | inactive: -1.66%
4 | COc1cc(OC)cc(C(=O)NCC2(N3CCCCC3)CCCCC2)c1 | inactive: 2.18%
5 | CC(=O)N(c1ccccc1)C1CCNCC1 | inactive: -5.53%
6 | CN(C)c1ccc(C(=O)NCC2(N3CCCCC3)CCCCC2)cc1 | inactive: -0.22%
7 | Cn1c(=O)[nH]cc(N(CCCl)CCCl)c1=O | inactive: 3.41%
8 | O=C(NCC1(N2CCCCC2)CCCCC1)c1ccco1 | inactive: 1.93%
9 | CCN1CCC(Nc2cccc(F)c2)CC1 | inactive: -2.23%
10 | Cc1ccccc1NC1(C#N)CCN(Cc2ccccc2)CC1 | inactive: -0.32%
11 | CCCOc1ccc(C(=O)NCC2(N(C)C)CCCCC2)cc1 | inactive: 7.99%
12 | O=C(O)C1(Nc2ccccc2)CCN(Cc2ccccc2)CC1 | inactive: 1.88%
13 | CC(C)(C)OC(=O)N1CCC(Nc2ccccc2)CC1 | inactive: -2.66%
14 | CN1CCC(Nc2ccc(F)c(Cl)c2)CC1 | inactive: -1.6%
15 | CCOc1ncccc1C(=O)NCC1(N2CCOCC2)CCCCC1 | inactive: 2.72%
16 | CN1CCC(Nc2ccc(Cl)cc2)CC1 | inactive: 1.11%
17 | CCC(CO)(C(=O)OC1CN2CCC1CC2)c1ccccc1 (centres undefined) | inactive: -2.06%
18 | COc1cccc(C(=O)N(c2cc(C)cc(C)c2)C2CCN(C(=O)OC(C)(C)C)CC2)c1 | inactive: 2.03%
19 | COc1cc(OC)cc(C(=O)NCC2(N3CCOCC3)CCCCC2)c1 | inactive: 5.47%
20 | COc1ccc(C(=O)NCC2(N3CCOCC3)CCCCC2)cc1OC | inactive: 7.2%
21 | O=C(NCC1(N2CCOCC2)CCCCC1)c1cc(Br)ccc1Cl | inactive: 5.27%
22 | COc1cc(C(=O)NCC2(N3CCOCC3)CCCCC2)cc(OC)c1C | inactive: 7.11%
23 | O=C(OC1CN2CCC1CC2)C1c2ccccc2C=Cc2ccccc21 (centres undefined) | inactive: 0.87%
24 | N/C(=N\O)c1c(N)no[n+]1[O-] | inactive: 1.67%
25 | CCOC(=O)N1CCC(Nc2ccc(C)cc2)CC1 | inactive: 7.24%

Row | Structure (SMILES) | inhibition
26 | CC(C)(C)OC(=O)N1CCC(N(C(=O)c2ccccc2)c2ccc(Cl)cc2)CC1 | inactive: 0.97%
27 | N#Cc1ccc(C(=O)NCC2(N3CCCCC3)CCCCC2)cc1 | inactive: 0.23%
28 | Cc1cc(N(CCCl)CCCl)ccc1C=O | inactive: 9.25%
29 | CCCN1CCC(Nc2cc(OC)cc(OC)c2)CC1 | inactive: 1.48%
30 | c1ccc(CN2CCC(Nc3ccccc3)CC2)cc1 | inactive: 1.6%
31 | CN(C)C1(CNC(=O)c2cccc(C#N)c2)CCCCC1 | inactive: 4.88%
32 | O=C(NCC1(N2CCCCC2)CCCCC1)c1cccc([N+](=O)[O-])c1 | inactive: 6.5%
33 | CSc1ccc(C(=O)NCC2(N3CCOCC3)CCCCC2)cc1 | inactive: -1.25%
34 | N#CC1(Nc2ccccc2)CCN(CCc2ccccc2)CC1 | inactive: 5.76%
35 | CCN1CCC(Nc2ccc(Cl)cc2)CC1 | inactive: 2%
36 | O=C(NCC1(N2CCCCC2)CCCCC1)c1ccc(OC(F)F)cc1 | inactive: 2.63%
37 | CC(C)c1ccc(C(=O)NCC2(N3CCOCC3)CCCCC2)cc1 | inactive: 3.64%
38 | COc1ccc(NC2CCN(C(=O)OC(C)(C)C)CC2)cc1 | inactive: 3.17%
39 | CN1CCN(CCOC(=O)C(O)(c2ccccc2)c2ccccc2)CC1 | inactive: 5.24%
40 | O=C(NCC1(N2CCOCC2)CCCCC1)c1cc(=O)[nH]c2ccccc12 | inactive: 5.62%
41 | COc1cc(C(=O)NCC2(N3CCCCC3)CCCCC2)ccc1OC(F)F | inactive: -3.1%
42 | O=C(NCC1(N2CCCCC2)CCCCC1)c1cccc(C(F)(F)F)c1 | inactive: 6.73%
43 | O=C(NCC1(N2CCOCC2)CCCCC1)c1cc(F)c(F)cc1Cl | inactive: 9.13%
44 | COc1cc(OC)c(C(=O)NCC2(N(C)C)CCCCC2)cc1OC | inactive: -1.04%
45 | CN(C)c1cccc(C(=O)NCC2(N3CCCCC3)CCCCC2)c1 | inactive: -2.17%
46 | COc1ccc(CN(CCCl)CCCl)cc1Cl | inactive: 1.29%
47 | CC(C)c1ccc(NC2CCN(C(=O)OC(C)(C)C)CC2)cc1 | inactive: 3.07%
48 | CCCOc1ccc(C(=O)NCC2(N(C)C)CCCCC2)cc1OC | inactive: -1.07%
49 | CN1CCC(Nc2cccc(F)c2)CC1 | inactive: 7.88%
50 | O=C(NCC1(N2CCCCC2)CCCCC1)c1cncc(Br)c1 | inactive: 1.16%

Row | Structure (SMILES) | inhibition
51 | Cc1cccc(NC2(C#N)CCN(Cc3ccccc3)CC2)c1 | inactive: 1.4%
52 | CSc1ccccc1C(=O)NCC1(N2CCCCC2)CCCCC1 | inactive: 3.18%
53 | O=C(NCC1(N2CCCCC2)CCCCC1)c1cccs1 | inactive: -2.77%
54 | O=C(NCC1(N2CCCCC2)CCCCC1)c1ccc(=O)[nH]c1 | inactive: 7.73%
55 | CC(C)(C)OC(=O)N1CCC(N(C(=O)c2ccccc2)c2ccc(F)cc2)CC1 | inactive: 3.59%
56 | COc1ccc(C(=O)NCC2(N3CCCCC3)CCCCC2)c(OC)c1OC | inactive: 8.32%
57 | COc1ccc(C(=O)NCC2(N3CCCCC3)CCCCC2)cc1 | inactive: 4.28%
58 | CCOC(=O)N1CCC(Nc2ccc(OC)cc2)CC1 | inactive: 3.86%
59 | COc1ccc(Cl)cc1C(=O)NCC1(N2CCOCC2)CCCCC1 | inactive: -2.13%
60 | O=C(NCC1(N2CCCCC2)CCCCC1)c1ccc(Cl)s1 | inactive: 6.87%
61 | N#CC1(Nc2ccccc2)CCN(Cc2ccccc2)CC1 | inactive: 8.08%
62 | O=C(OC1CN2CCC1CC2)C1c2ccccc2Oc2ccccc21 (centres undefined) | inactive: 1.45%
63 | O=C(NCC1(N2CCOCC2)CCCCC1)c1cc2ccccc2o1 | inactive: 3.88%
64 | Cc1cc(C)cc(N(C(=O)c2ccccc2)C2CCN(C(=O)OC(C)(C)C)CC2)c1 | inactive: 4.07%
65 | O=C(NCC1(N2CCCCC2)CCCCC1)c1ccc(Cl)nc1 | inactive: 6.66%
66 | CCOC(=O)N1CCC(Nc2ccc(F)cc2)CC1 | inactive: -0.94%
67 | COc1ccc(NC2CCN(CCc3ccccc3)CC2)c(OC)c1 | inactive: 4.96%
68 | CCCCOc1ccc(C(=O)NCC2(N3CCOCC3)CCCCC2)cc1 | inactive: -1.06%
69 | O=P1(N(CCCl)CCCl)SCCCS1 | inactive: 0.91%
70 | O=C(NCC1(N2CCCCC2)CCCCC1)c1ccc(F)cc1 | inactive: 3.5%
71 | CCOc1ccc(C)cc1CN(CCCl)CCCl | inactive: 4.05%
72 | O=C1CCN(Cc2ccccc2)CC1 | inactive: -7.27%
73 | CCOC(=O)N1CCC(Nc2cccc(C)c2)CC1 | inactive: 0.89%
74 | COc1cc(C(=O)NCC2(N(C)C)CCCCC2)ccc1OC(F)F | inactive: 0.01%
